{"source": "PubChem BioAssay AID652104", "about": "(National Center for Advancing Translational Sciences (NCATS), 2013)", "note": "The entries are a selection whose mix differs from that of the whole data set. Records with an inconclusive call do not appear. The source made the active and inactive calls. Calls come from the whole dose curve; as a rule, active = well fitted activation curve with a large enough effect; inconclusive = small, poorly fitted or top-dose-only effect, or another doubt; inactive = no such curve, though single readings can be large or run the other way."}
{"test": "qHTS of TDP-43 Inhibitors; note: % of control where 0% means no effect; nearly all actives have a fitted effect of over 50% in size", "conditions": "TDP-43 expressing yeast growth rescue, BacTiter-Glo, 24 h; series mostly up to 46.1 µM; growth rescue (activation): at the top concentration"}
{"smiles": "Oc1ccccc1CNc1ccccn1", "growth rescue (activation)": "inactive: -15.2%"}
{"smiles": "O=C(NC(Sc1ccncn1)C(Cl)(Cl)Cl)c1ccccc1", "note": "(centres undefined)", "growth rescue (activation)": "inactive: 17%"}
{"smiles": "CC(C)CC(=O)NC(Sc1ccc(Cl)cc1)C(Cl)(Cl)Cl", "note": "(centres undefined)", "growth rescue (activation)": "inactive: -18.8%"}
{"smiles": "Nc1cc(N)c2nonc2c1[N+](=O)[O-]", "growth rescue (activation)": "inactive: -13.3%"}
{"smiles": "O=[N+]([O-])C1C(O)C(O)C([N+](=O)[O-])C(O)C1O", "note": "(centres undefined)", "growth rescue (activation)": "inactive: 9.32%"}
{"smiles": "CN(C(=O)Cc1ccc(Cl)c(Cl)c1)[C@H]1CCCC[C@H]1N1CCCC1", "growth rescue (activation)": "inactive: 0%"}
{"smiles": "Cc1ccc(N/C(=N/P(=O)(N2CCOCC2)N2CCOCC2)N2CCOCC2)cc1", "growth rescue (activation)": "inactive: -6%"}
{"smiles": "NC(=O)c1cc([N+](=O)[O-])cc([N+](=O)[O-])c1N", "growth rescue (activation)": "inactive: 4.45%"}
{"smiles": "CN1CCCC(OC(=O)C(c2ccccc2)c2ccccc2)C1", "note": "(centres undefined)", "growth rescue (activation)": "inactive: -19.8%"}
{"smiles": "COc1ccccc1OP(=O)(Nc1ccc(C)cn1)Oc1ccccc1OC", "growth rescue (activation)": "inactive: -25.8%"}
{"smiles": "Cc1ccc(OP(=O)(Nc2nccs2)Oc2ccc(C)cc2)cc1", "growth rescue (activation)": "inactive: 6.88%"}
{"smiles": "Nc1cccc2ccc([As](=O)(O)O)cc12", "growth rescue (activation)": "inactive: 4.81%"}
{"smiles": "CCN(N=Nc1nonc1N)c1nonc1N", "growth rescue (activation)": "inactive: 15.3%"}
{"smiles": "O=P(Nc1nc2ccc(Cl)cc2s1)(c1ccccc1)c1ccccc1", "growth rescue (activation)": "inactive: -2.3%"}
{"smiles": "O=C(O)c1ccccc1[As](=O)(O)O", "growth rescue (activation)": "inactive: 13.1%"}
{"smiles": "CC(=O)Nc1ccc([As](=O)(O)O)cc1", "growth rescue (activation)": "inactive: 9.92%"}
{"smiles": "CCCC1OP(N)(=O)OCC1CC", "note": "(centres undefined)", "growth rescue (activation)": "inactive: -4.57%"}
{"smiles": "CCOP(=O)(Nc1ccccc1)OCC", "growth rescue (activation)": "inactive: -9.56%"}
{"smiles": "Cc1cc(SC(NC(=O)c2ccc(F)cc2)C(Cl)(Cl)Cl)ncn1", "note": "(centres undefined)", "growth rescue (activation)": "inactive: -14.8%"}
{"smiles": "CN(C(=O)Cc1ccc(Cl)c(Cl)c1)[C@H]1CCCC[C@@H]1N1CCCC1", "growth rescue (activation)": "inactive: 24.1%"}
{"smiles": "Cc1ccc(NP(=O)(Oc2ccccc2F)Oc2ccccc2F)nc1", "growth rescue (activation)": "inactive: -7.78%"}
{"smiles": "O=[N+]([O-])c1ncn(CCn2ncnc2[N+](=O)[O-])n1", "growth rescue (activation)": "inactive: 2%"}
{"smiles": "CC(C)(C)C(=O)NC(Sc1ccncn1)C(Cl)(Cl)Cl", "note": "(centres undefined)", "growth rescue (activation)": "inactive: -13.3%"}
{"smiles": "O=C(O)CNc1ccc([As](=O)(O)O)cc1", "growth rescue (activation)": "inactive: -5.26%"}
{"smiles": "O=[N+]([O-])c1cccc(NC2=NCC(CBr)S2)c1", "note": "(centres undefined)", "growth rescue (activation)": "inactive: 0.363%"}
{"smiles": "COC(=O)C1(C)COP(=O)(Nc2ccccc2)OC1", "note": "(centres undefined)", "growth rescue (activation)": "inactive: 4.04%"}
{"smiles": "O=P1(N(CCCl)CCCl)OCCCS1", "note": "(centres undefined)", "growth rescue (activation)": "inactive: -3.33%"}
{"smiles": "O=C(Nc1cc([As](=O)(O)O)ccc1O)c1ccccc1", "growth rescue (activation)": "inactive: -10.5%"}
{"smiles": "CCN(/C(=N/P(=O)(N1CCOCC1)N1CCOCC1)N1CCOCC1)c1ccc(OC)cc1", "growth rescue (activation)": "inactive: -8.31%"}
{"smiles": "Nc1ccc([As](=O)(O)c2ccc(N)cc2)cc1", "growth rescue (activation)": "inactive: -0.746%"}
{"smiles": "c1cc(-c2nn[nH]n2)ccc1-c1nn[nH]n1", "growth rescue (activation)": "inactive: -2%"}
{"smiles": "CC(C)=N/N=C(\\N)N[N+](=O)[O-]", "growth rescue (activation)": "inactive: 1.73%"}
{"smiles": "CC(C)c1nc(Nc2ccccc2)n(P(=O)(N(C)C)N(C)C)n1", "growth rescue (activation)": "inactive: 12.9%"}
{"smiles": "CN(C)C(=O)OCCc1n(C)cc[n+]1C", "growth rescue (activation)": "inactive: 23.9%"}
{"smiles": "COc1ccc(C2=NCC(CBr)S2)cc1", "note": "(centres undefined)", "growth rescue (activation)": "inactive: 1.91% [at 9.22 µM]"}
{"smiles": "O=[N+]([O-])c1cc([N+](=O)[O-])c(CCNc2ccccc2)c([N+](=O)[O-])c1", "growth rescue (activation)": "inactive: 1.21%"}
{"smiles": "CCc1nc2c(n1)c1c(non1O)c1c2no[n+]1[O-]", "growth rescue (activation)": "inactive: -13.9%"}
{"smiles": "CC(=O)N1C2C3N(C(C)=O)C1C1N(C(C)=O)C(C(N1C(C)=O)N3C(C)=O)N2C(C)=O", "growth rescue (activation)": "inactive: -13.3%"}
{"smiles": "O=[N+]([O-])c1cccc2n[nH]nc12", "growth rescue (activation)": "inactive: -16.3%"}
{"smiles": "O=P(Nc1nccs1)(c1ccccc1)c1ccccc1", "growth rescue (activation)": "inactive: 15.5%"}
{"smiles": "CC(C)C(=O)NC(Sc1ccccc1)C(Cl)(Cl)Cl", "note": "(centres undefined)", "growth rescue (activation)": "inactive: -16.8%"}
{"smiles": "c1nnnn1CCn1cnnn1", "growth rescue (activation)": "inactive: 8.03%"}
{"smiles": "O=[As](O)(c1ccccc1)c1ccc(O)cc1", "growth rescue (activation)": "inactive: -25%"}
{"smiles": "O=[N+]([O-])c1ncn(CCn2cnc([N+](=O)[O-])n2)n1", "growth rescue (activation)": "inactive: -1.63%"}
{"smiles": "O=C(OC1CN2CCC1CC2)c1cccc(Cl)c1", "note": "(centres undefined)", "growth rescue (activation)": "inactive: 9%"}
{"smiles": "Nc1ccc([As](=O)(O)c2ccc([N+](=O)[O-])cc2)cc1", "growth rescue (activation)": "inactive: -14.5%"}
{"smiles": "C(Cc1nn[nH]n1)Cc1nn[nH]n1", "growth rescue (activation)": "inactive: 15.5%"}
{"smiles": "CN(C)C1(CNC(=O)c2ccc(Cl)c(S(N)(=O)=O)c2)CCCCC1", "growth rescue (activation)": "inactive: 14.8%"}
{"smiles": "O=P(Nc1ccccn1)(c1ccc(Br)cc1)c1ccc(Br)cc1", "growth rescue (activation)": "inactive: -16.6%"}
{"smiles": "COc1ccc(N)c([N+](=O)[O-])c1[N+](=O)[O-]", "growth rescue (activation)": "inactive: -1.11%"}
{"smiles": "O=P(Nc1nc2ccccc2s1)(c1ccccc1)c1ccccc1", "growth rescue (activation)": "inactive: -0.87%"}
{"smiles": "C[C@H]1OP(=O)(Oc2ccccc2)[C@H](O)[C@H](O)[C@H]1N=[N+]=[N-]", "note": "(some centres undefined)", "growth rescue (activation)": "inactive: -3.17%"}
{"smiles": "O=C(OC1CN2CCC1CC2)c1ccccc1", "note": "(centres undefined)", "growth rescue (activation)": "inactive: -2.6%"}
{"smiles": "CCC(=O)N1C2C3N(C(=O)CC)C1C1N(C(=O)CC)C(C(N1C(=O)CC)N3C(=O)CC)N2C(=O)CC", "growth rescue (activation)": "inactive: 5.96%"}
{"smiles": "COC(=O)c1cc2c(s1)N=C(c1ccccc1)N(C)P2(=O)N1CCOCC1", "note": "(centres undefined)", "growth rescue (activation)": "inactive: 9.56%"}
{"smiles": "Cc1ccc(OP(=O)(Nc2ccccn2)Oc2ccc(C)cc2)cc1", "growth rescue (activation)": "inactive: 0%"}
{"smiles": "CC(=O)NC(SC(=S)N(CC(C)C)CC(C)C)C(Cl)(Cl)Cl", "note": "(centres undefined)", "growth rescue (activation)": "inactive: 7.29%"}
{"smiles": "Cc1ccccc1OP(=O)(Nc1ccccn1)Oc1ccccc1C", "growth rescue (activation)": "inactive: -3.35%"}
{"smiles": "CC(NC(=O)COC(=O)C(O)(c1ccccc1)c1ccccc1)c1ccccc1", "note": "(centres undefined)", "growth rescue (activation)": "inactive: 15.3%"}
